The assay addresses H77 E1E2 (full-length E1E2, wild type) (Hepatitis C virus genotype 1a, isolate …). Description: ELISA. A general note: An ELISA detects its analyte on a solid surface through an enzyme-linked reagent.

This note sets out measurements from PMC7380959 (Science Advances, 2020).

B1: AR3C IgG (antibody, V domains shown)
VH: VQLLEQSGAEVKKPGSSVKVSCETSGGTFDNYALNWVRQAPGQGLEWIGGVVPLFGTTRNAQKFQGRVTISDDKSTGTGHMELRSLRSEDTAVYYCVRSVTPRYCGGGFCYGEFDYWGQGTLVTVSS
VL: EIELTQSPATLSVSPGERATLSCRASQSVSSNLAWYQQKPGQAPRLLIYGASTRATGIPARFSGSGSGTEFTLTVSRLEPEDSAVYFCQQYYRSPLTFGGGTKVEIK
As for B1, the binding result is recorded as “binds”.
